The text below walks through data of patent US9610320B2, “Surgical applications for BMP binding protein” (THE REGENTS OF THE UNIVERSITY OF CALIFORNIA, priority 2004, dated 2017).

One series has as its system male Swiss-Weber mice. Put plainly: Mouse hindquarter (muscle pouch) ectopic bone formation assay, BBP. The format is in vivo. Here is the method: (§1) Methods: The osteogenic activity of material was tested using male Swiss-Weber mice aged 8 to 10 weeks were used (Taconic Farms, Germantown, N.Y.). Prior to the assay, the BBP was solublized and lyophilized into 2 mg of atelocollagen. The dried material was placed in a #5 gelatin capsule and sterilized by exposure to chloroform vapor. To conduct the assay, mice were anesthetized using 1% isoflurane delivered in oxygen at 2 l/min through a small animal anesthesia machine (VetEquip, Pleasanton, Calif.). Animals were affixed to a surgery board and the fur over the hindquarters shaved. The skin was cleaned with 70% ethanol and a midline incision made over the spine adjacent to the hindquarters. Blunt dissection with scissors was used to expose the quadriceps muscle on one side. A small pouch was made in the muscle using the point of scissors and the #5 capsule containing the test material was inserted into the pouch. The skin was then closed with three 11 mm Michel surgical clips and the animal returned to its cage for monitoring.
After 21 days the animals were killed and the hindquarter removed. Radiological examination of the specimens was accomplished using a small parts X-Ray cabinet (Faxitron, Wheeling, Ill.). For quantization of bone formation, bone area and the bone mineral content (BMC) of an area of interest encompassing the site of ectopic bone formation was determined using a PIXImus2 small animal densitometer (GE Lunar, Madison, Wis.). Specimens were then placed in buffered formalin and submitted for routine processing for histological examination.
Various amounts of rhBMP-2 and BBP were combined and prepared for implantation. All possible combinations of the following amounts were used in pilot studies, rhBMP-2: 0 μg, 0.05 μg, 0.5 μg, 5 μg, and 50 μg; BBP: 0 μg, 50 μg, and μg 500 mg. Samples of 5 μg of rhBMP-2 were used in more extensive subsequent studies because that amount consistently produced an amount of ectopic bone that was neither too large nor too small for reliable analysis.

The test system of a further series is mice. As to the kind of experiment: Mouse hindquarter ectopic bone formation assay, human BBP. The format is in vivo. As to conditions: rhBMP-2 5 μg alone, 4 weeks, DEXA. On the procedure: as §1
After 21 days the animals were killed and the hindquarter removed. […] For quantization of bone formation, bone area and the bone mineral content (BMC) of an area of interest encompassing the site of ectopic bone formation was determined using a PIXImus2 small animal densitometer (GE Lunar, Madison, Wis.). […]

Series [1] has as its system Lewis rats. As to the kind of experiment: Rat posterolateral intertransverse process spinal fusion L4-L5 (Example 6). The format is in vivo. Particulars: for Fusion Rates: Group 3: collagen plus low-dose rhBMP-2 1 μg, week 8. Here is the method:
Methods: Three groups of 6 Lewis rats each underwent posterolateral intertransverse process spinal fusion at vertebrae L4-L5 with the application of collagen sponges containing: BBP (500 μg)(Group 1): BBP (500 μg) plus low-dose rhBMP-2 (1 μg) (Group 2); collagen plus low-dose rhBMP-2 (1 μg) (Group 3), Results were compared to historical controls of decortication only (0% fusion) and high-dose rhBMP-2 (3 μg) (100% fusion). All rats underwent post-operative radiography at 2, 4, 6, and 8 weeks. Manual spinal palpation was performed at 8 weeks, the time of sacrifice. Bone formation was assessed in histological sections stained with H&E.

The subject of series [2] is Lewis rats. Put plainly: Rat posterolateral intertransverse process spinal fusion L4-L5 (Example 7). Format: in vivo. Here is the method: Methods: Five groups of 50 Lewis rats each underwent posterolateral intertransverse process spinal fusion at vertebrae L4-L5 with implanted: BBP (500 μg) (Group 1); BBP (1000 μg) (Group 2), collagen plus low dose BMP-2 (1 μg) (Group 3), BBP (500 μg) plus low dose BMP (1 μg) (Group 4) and BBP (1000 μg) plus low dose BMP (1 μg) (Group 5). Control groups included a negative group (decortication) and positive control group (collagen plus 3 μg BMP).
All rats underwent post-operative radiography at 2, 4, 6, and 8 weeks. Manual spinal palpation was performed at 8 weeks, after the time of sacrifice. Bone formation was assessed in histological sections stained with H&E.

Series [3] has as its system Lewis rats. Put plainly: Rat posterolateral intertransverse process spinal fusion L4-L5 (Example 8). The format is in vivo. Here is the method: Methods: Posterolateral intertransverse process spinal fusion at L4-L5 was performed in five treatment groups of Lewis rats each, and collagen sponges (5×5×13 mm) were implanted into the surgical sites.
Each sponge was placed in a sterile microfuge tube and either a suspension of BBP (500 μg or 1000 μg) in water or sterile water alone was applied. The sponges were allowed to air dry in a tissue culture hood overnight and then placed at −70° C. for an hour and lyophilized overnight. The tubes (with small holes in the top to allow for lyophilization) were placed in autoclave pouches and sealed. The materials were then sterilized by exposure to chloroform vapor for at least 4 hours. Immediately prior to surgery, the pouches were opened and the sponges were removed from the tubes and placed in a second tube containing the designed amount of rhBMP-2 or water. The sponges were able to completely absorb the solution.
The posterolateral intertransverse process spinal fusion at L4-L5 in the rat is a well established procedure in our laboratory 13-17. Briefly, the animal was anesthetized with isofluane and the surgical site was shaved and propped with Betadyne and alcohol. A 3 cm longitudinal midline incision was made through the skin and subcutaneous tissue over L4-L5 down to the lumbodorsal fascia. Then, two separate 2 cm longitudinal paramedial incisions were made in the erector spinae muscles on both sides of L4-L5. The transverse processes of L4-L5 were exposed, cleaned of soft tissue, and decorticated with a high-speed burr. The site was irrigated with saline and the therapeutic test material was placed. The lumbodorsal fascia was closed with 4-0 Prolene (Ethicon, Somerville, N.J.). The skin was closed with 4-0 Prolene and meticulous post-operative care was provided.
Two doses of BBP (500 μg, and 1000 μg) were tested with or without “low dose” (1 μg) rhBMP-2 and the results were compared to the low dose (1 μg) rhBMP-2. These were compared to control groups. Fusion was evaluated by radiology, histology and manual palpation tests. Animals were sacrificed 8 weeks after surgery.
The results of the surgeries were assessed radiologically, histologically, and by manual palpation. Posteroanterior radiographs were obtained using a small parts X-ray cabinet (Faxitron Corp., Wheeling, Ill.) on each animal at 2, 4, 6 and 8 weeks. Radiograms were evaluated by three independent observers employing the following standardized scale: 0: no fusion; 1: incomplete fusion with bone formation present; and 2: complete fusion. The scores from the three observes were added and a total of 5 or 6 was regarded as “fused”. Manual palpation of the spine was performed at the time of sacrifice at 8 weeks. To simulate the gold standard for determining fusion in humans, exploration and manual palpation of the fusion mass were performed after death. The level fused was manually palpated with Adson forceps and compared with the adjacent nonfused levels. Each specimen was graded as fused or non-fused by three independent observers. The spine was designated as “not fused” if any of the three observers graded the spine as not fused. After manual palpation, the specimens were decalcified using standard 10% decalcifying solution HCl (Cal-Ex, Fisher Scientific, Fairlawn, N.J.), washed with running tap water, then transferred to 75% ethanol. Sagittal sections were cut carefully at the level of the transverse process. The specimens were imbedded in paraffin and sections of each specimen obtained. These sections were stained with hematoxylin and eosin. They were evaluated by an independent observer as fused and not fused.
The proportions of subjects in each group judged to be “fused” were compared in sequential two group comparisons with Fisher's exact test using SPSS software. A p score of less than or equal to 0.05 was set for statistical significance.

For series [4] the following is noted: as described in the background; cited from earlier work.
Where [5] appears, read: 5 μg rhBMP-2, BBP 0 μg, 21 days, densitometry.
Where [6] appears, read: low dose BMP-2 only (1 μg rhBMP-2).
Setting [7] is: low dose BMP-2 only (1 μg rhBMP-2), 8th week.

For “rhBMP-2: recombinant human BMP-2, bone morphogenetic protein”, in the series with male Swiss-Weber mice (setting [5]), the “Bone Area” value is listed as 0.089 ± 0.0336 cm^2 and the “Bone Mineral Content” value worked out at 0.00189 ± 0.00084 g. For the same substance, the “histology day 9 (FIG. 8A)” value in the series with male Swiss-Weber mice (5 μg rhBMP-2 alone, 9 days) is “earlier stages of inflammation and mesodermal cell proliferation”. For the same substance, the “Mean BMC content” value with mice is 0.00775 g. Besides, the “Fusion Rates” value with Lewis rats [1] came out at 20%. Moreover, in the series with Lewis rats [1] (listed as BMP), the “Fusion Rates” value was found to be 40%. The substance also returned a fusion with Lewis rats [1] (historical control, high-dose rhBMP-2 3 μg) of 100%. The “fusion by manual palpation” value in the series on Lewis rats [2] (Group 3: collagen plus low dose BMP-2 1 μg, week 8) is 40%. Further, in the series on Lewis rats [2] (historical positive control, full dose BMP (collagen plus 3 μg BMP)), the fusion rate stood at 100%. Moreover, the “radiological examination, fused, Week 8th” value in the series on Lewis rats [3] (control group, high dose BMP-2 only (10 μg rhBMP-2)) stood at 100%. In addition, in the series on Lewis rats [3] (control group, high dose BMP-2 only, 8th week), the “Manual Palpation, fused” value is listed as 100%. In the series on Lewis rats [3] (setting [6]), the “radiological examination, fused, Week 2nd” value came to 0%; the “radiological examination, fused, Week 4th” value amounted to 20%; the “radiological examination, fused, Week 6th” value turned out to be 30%; the “radiological examination, fused, Week 8th” value was 40%. In the series with Lewis rats [3] (setting [7]), the “Histology, fused” value amounted to 40% and the “Manual Palpation, fused” value amounted to 40%. In addition, the “histological section finding (FIG. 18)” value in the series on Lewis rats [3] (low dose rhBMP-2 (1 μg), 8 weeks) is listed as “immature bone bridging the cortical matured bridging bony parts”. Moreover, the “anterior-posterior radiograph finding at L4-L5 (FIG. 16)” value with Lewis rats [3] (rhBMP-2 (1 μg)) is on record as “pseudoarthritis at right anno fusion at left”. Moreover, the half-life entry in series [4] is “only a few hours”.
